# In paper PMC3659105, “Profiling Epidermal Growth Factor Receptor and Heregulin Receptor 3 Heteromerization Using Receptor Tyrosine Kinase Heteromer Investigation Technology” (PLoS ONE, 2013):
# Protein sequences, listed by entry. Tags and fused reporters are not part of them. Residues count along the entry.
# UniProt P21860, 20-1342: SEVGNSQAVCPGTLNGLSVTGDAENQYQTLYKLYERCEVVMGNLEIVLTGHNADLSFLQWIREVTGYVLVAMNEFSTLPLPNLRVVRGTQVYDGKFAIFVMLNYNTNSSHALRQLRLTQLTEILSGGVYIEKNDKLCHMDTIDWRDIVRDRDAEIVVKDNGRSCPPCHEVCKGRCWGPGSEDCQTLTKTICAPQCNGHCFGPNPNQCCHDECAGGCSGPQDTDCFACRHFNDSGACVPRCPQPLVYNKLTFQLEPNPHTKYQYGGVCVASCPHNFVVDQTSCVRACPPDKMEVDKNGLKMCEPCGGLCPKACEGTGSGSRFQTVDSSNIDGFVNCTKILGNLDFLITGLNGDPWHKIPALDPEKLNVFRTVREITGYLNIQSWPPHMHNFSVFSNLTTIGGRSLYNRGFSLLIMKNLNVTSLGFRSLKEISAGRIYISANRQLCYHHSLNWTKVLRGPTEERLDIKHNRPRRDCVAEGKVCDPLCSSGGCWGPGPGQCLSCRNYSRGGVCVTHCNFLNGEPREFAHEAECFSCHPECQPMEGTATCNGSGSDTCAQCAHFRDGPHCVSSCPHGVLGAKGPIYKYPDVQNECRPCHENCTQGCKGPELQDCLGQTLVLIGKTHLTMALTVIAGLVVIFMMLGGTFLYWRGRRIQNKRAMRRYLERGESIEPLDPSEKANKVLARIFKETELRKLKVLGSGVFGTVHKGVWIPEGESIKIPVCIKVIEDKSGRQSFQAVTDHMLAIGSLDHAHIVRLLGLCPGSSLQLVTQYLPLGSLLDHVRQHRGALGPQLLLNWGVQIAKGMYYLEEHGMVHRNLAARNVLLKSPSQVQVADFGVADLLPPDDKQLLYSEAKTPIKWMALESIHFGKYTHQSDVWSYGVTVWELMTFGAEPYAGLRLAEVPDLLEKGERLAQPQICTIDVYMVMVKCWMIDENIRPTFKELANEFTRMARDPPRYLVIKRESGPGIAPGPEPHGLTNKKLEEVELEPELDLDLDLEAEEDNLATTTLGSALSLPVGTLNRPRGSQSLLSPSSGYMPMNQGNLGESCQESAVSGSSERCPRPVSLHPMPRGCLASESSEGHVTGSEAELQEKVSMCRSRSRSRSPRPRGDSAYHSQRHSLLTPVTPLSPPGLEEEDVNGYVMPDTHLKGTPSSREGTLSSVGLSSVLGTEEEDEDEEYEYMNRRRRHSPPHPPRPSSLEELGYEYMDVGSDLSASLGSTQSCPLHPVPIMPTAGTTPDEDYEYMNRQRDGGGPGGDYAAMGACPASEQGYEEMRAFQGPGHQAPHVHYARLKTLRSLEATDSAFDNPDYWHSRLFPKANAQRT
# Legend:
# Format in all cases: cell-based
# [1] = target: T1, EGFR-HER3 heteromer (Homo sapiens, UniProt P00533+P21860); assay: RTK-HIT BRET between HER3/Rluc8 and Grb2/Venus with untagged EGFR co-expressed
# T1 construct: used to replace the C terminus of the full-length constructs (with or without Rluc8); host or cells: HEK293FT
# Description: (§1) HEK293FT cells (Life Technologies) were maintained at 37°C in 5% CO2 and complete media (Dulbecco's modified Eagle's medium (DMEM) containing 0.3 mg/ml glutamine, 100 IU/ml penicillin and 100 µg/ml streptomycin (GIBCO BRL, Carlsbad, CA, USA)) supplemented with 10% foetal calf serum (FCS) and 400 µg/ml Geneticin (Gibco). Transient transfections were carried out 24 h after seeding about 550,000 cells/well of a 6-well plate. Genejuice (Merck, Kilsyth, Australia) transfection reagent was used according to the manufacturer's instructions. Cells were harvested with 0.05% Trypsin-EDTA (Gibco).
# (§2) Following initial titration of cDNA amounts (data not shown), two ratios were selected for the heteromer combinations shown in Figure 2. […] 24 h post-transfection, cells were harvested into 96-well plates (Nunc) and 48 h post-transfection, cells were incubated at 37°C, 5% CO2 for 2 h with 30 µM EnduRen (Promega) to ensure substrate equilibrium was reached. BRET measurements were taken at 37°C using the VICTOR Light plate reader with Wallac 1420 software (PerkinElmer, Glen Waverley, Victoria, Australia). Filtered light emissions were sequentially measured at 400–475 and 520–540 nm. The BRET signal was calculated by subtracting the ratio of 520–540 nm emission over 400–475 nm emission for a vehicle-treated cell sample from the same ratio for a second aliquot of the same cells treated with agonist, as described previously, [35].
# [2] = target: T1, EGFR-HER3 heteromer; assay: RTK-HIT BRET between EGFR/Rluc8 and Grb2/Venus with untagged HER3 co-expressed
# Description: as §1, §2
# [3] = target: T2, EGFR (Homo sapiens, UniProt P00533); assay: Ligand-induced BRET between EGFR/Rluc8 and Grb2/Venus (+ pcDNA3), Grb2 recruitment
# T2 construct: host or cells: HEK293FT
# Description: as §1, §2
# [4] = 1 µM AG-1478, 20 nM agonist, kinetic
smiles,measurement,setting,value
"COc1cc2ncnc(Nc3cccc(Cl)c3)c2cc1OC.Cl [AG-1478, AG-1478 hydrochloride]",effect on constitutive BRET signal,[1]; [4],strongly decreased
same,inhibition of EGF- and HRG-induced BRET,[1]; [4],completely blocked
same,"pIC50, EGF stimulation","[1]; HER3/Rluc8 + Grb2/Venus + EGFR, 20 nM EGF",7.26±0.27 (n = 5)
same,"pIC50, HRG stimulation","[1]; HER3/Rluc8 + Grb2/Venus + EGFR, 20 nM HRG",7.13±0.24 (n = 5)
same,inhibition of EGF- and HRG-induced BRET,[2]; [4],abolished
same,"pIC50, EGF stimulation","[2]; EGFR/Rluc8 + Grb2/Venus + HER3, 20 nM EGF",6.35±0.11 (n = 4)
same,"pIC50, HRG stimulation","[2]; EGFR/Rluc8 + Grb2/Venus + HER3, 20 nM HRG",6.76±0.11 (n = 5)
same,inhibition of EGF-induced BRET,"[3]; 1 µM AG-1478, 20 nM EGF, kinetic",effectively block
same,BRET signal relative to baseline,"[3]; 10 µM AG-1478, 20 nM EGF",below baseline
same,"pIC50, EGF stimulation","[3]; EGFR/Rluc8 + Grb2/Venus + pcDNA3, 20 nM EGF, about 60 minutes after agonist",6.68±0.17 (n = 3)
same,"pIC50, HRG stimulation","[3]; EGFR/Rluc8 + Grb2/Venus + pcDNA3, 20 nM HRG (constitutive BRET), about 60 minutes after agonist",6.31±0.08 (n = 3)
same,inhibition of EGF-induced BRET,"[3]; increasing concentrations of AG-1478, 20 nM EGF",completely inhibited
same,effect on constitutive BRET,"[3]; increasing concentrations of AG-1478, cells pretreated with HRG",dramatically reduced the BRET signal below the basal level
